Assay results published in patent publication US7399744B2, “Methods for affecting body composition” (Amylin Pharmaceuticals, Inc., priority 2004, dated 2008).

How the values were obtained:
[1] = tested on: insulin-stimulated glycogen synthesis in soleus muscle; test: Soleus muscle assay; assay type: cell-based, rat; details: for EC50: rat soleus muscle, […] insulin, inhibition of glucose incorporation into glycogen
[2] = Solubility and stability compared to human amylin; assay type: physicochemical
amylin receptors = molecular target: T1, amylin receptors (Rattus norvegicus, UniProt P32214+Q9JJ74); test: Receptor binding assay (competition with 125I Bolton Hunter rat amylin, basal forebrain membranes); details: for IC50: read-out: Receptor Binding
T1 construct: This basal forebrain tissue, containing the nucleus accumbens and surrounding regions, was weighed and homogenized; from tissue; host or cells: rat basal forebrain (nucleus accumbens and surrounding regions) membranes
T1 sequence (P32214 25-516): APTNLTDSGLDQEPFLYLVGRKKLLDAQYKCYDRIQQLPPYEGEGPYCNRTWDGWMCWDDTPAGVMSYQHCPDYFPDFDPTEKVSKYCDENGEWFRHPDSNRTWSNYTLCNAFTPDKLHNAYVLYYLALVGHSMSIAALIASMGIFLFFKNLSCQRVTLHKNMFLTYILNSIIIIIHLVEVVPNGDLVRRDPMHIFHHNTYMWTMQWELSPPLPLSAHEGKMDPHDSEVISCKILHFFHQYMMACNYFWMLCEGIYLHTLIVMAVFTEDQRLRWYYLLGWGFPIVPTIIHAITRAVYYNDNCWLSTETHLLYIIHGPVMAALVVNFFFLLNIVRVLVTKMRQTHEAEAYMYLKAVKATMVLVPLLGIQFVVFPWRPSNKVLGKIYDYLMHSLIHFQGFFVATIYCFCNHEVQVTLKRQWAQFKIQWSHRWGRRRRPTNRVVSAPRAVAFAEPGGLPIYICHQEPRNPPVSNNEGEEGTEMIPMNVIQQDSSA
T1 sequence (Q9JJ74 27-148): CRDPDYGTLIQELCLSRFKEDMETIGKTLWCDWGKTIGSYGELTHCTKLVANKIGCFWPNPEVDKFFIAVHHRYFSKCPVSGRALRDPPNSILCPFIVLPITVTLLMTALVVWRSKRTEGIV

| Structure (SMILES) | EC50 [1] | solubility and stability characteristics when compared to human amylin [2] | compete with amylin in the receptor binding assay (amylin receptors) | IC50 (amylin receptors) | amylin agonist action in the soleus muscle assay [1] | antagonist activity as measured by the soleus muscle assay [1] |
| --- | --- | --- | --- | --- | --- | --- |
| CC[C@H](C)[C@H](NC(=O)[C@@H]1CCCN1C(=O)CNC(=O)[C@H](Cc1ccccc1)NC(=O)[C@H](CC(N)=O)NC(=O)[C@H](CC(N)=O)NC(=O)[C@H](CO)NC(=O)[C@H](CO)NC(=O)[C@H](CCCNC(=N)N)NC(=O)[C@@H](NC(=O)[C@H](CC(C)C)NC(=O)[C@H](Cc1ccccc1)NC(=O)[C@H](CC(N)=O)NC(=O)[C@H](C)NC(=O)[C@H](CC(C)C)NC(=O)[C@H](CCCNC(=N)N)NC(=O)[C@H](CCC(N)=O)NC(=O)[C@@H](NC(=O)[C@H](C)NC(=O)[C@@H]1CSSC[C@H](NC(=O)[C@@H](N)CCCCN)C(=O)N[C@@H](CC(N)=O)C(=O)N[C@@H]([C@@H](C)O)C(=O)N[C@@H](C)C(=O)N[C@@H]([C@@H](C)O)C(=O)N1)[C@@H](C)O)C(C)C)C(=O)N[C@@H](CC(C)C)C(=O)N1CCC[C@H]1C(=O)N[C@@H](CO)C(=O)N[C@H](C(=O)N[C@@H](CC(N)=O)C(=O)N[C@H](C(=O)NCC(=O)N[C@@H](CO)C(=O)N[C@@H](CC(N)=O)C(=O)N[C@H](C(=O)N[C@@H](Cc1ccc(O)cc1)C(N)=O)[C@@H](C)O)C(C)C)[C@@H](C)O [^18Arg^25,28Pro-h-Amylin] | 2.83 nM | more desirable | compete with amylin | 0.032 nM | act as amylin agonists | negligible |
| CC[C@H](C)[C@H](NC(=O)[C@@H]1CCCN1C(=O)CNC(=O)[C@H](Cc1ccccc1)NC(=O)[C@H](CC(N)=O)NC(=O)[C@H](CC(N)=O)NC(=O)[C@H](CO)NC(=O)[C@H](CO)NC(=O)[C@H](CCCNC(=N)N)NC(=O)[C@@H](NC(=O)[C@H](CC(C)C)NC(=O)[C@H](Cc1ccccc1)NC(=O)[C@H](CC(N)=O)NC(=O)[C@H](C)NC(=O)[C@H](CC(C)C)NC(=O)[C@H](CCCNC(=N)N)NC(=O)[C@H](CCC(N)=O)NC(=O)[C@@H](NC(=O)[C@H](C)NC(=O)[C@@H]1CSSC[C@H](N)C(=O)N[C@@H](CC(N)=O)C(=O)N[C@@H]([C@@H](C)O)C(=O)N[C@@H](C)C(=O)N[C@@H]([C@@H](C)O)C(=O)N1)[C@@H](C)O)C(C)C)C(=O)N[C@@H](CC(C)C)C(=O)N1CCC[C@H]1C(=O)N1CCC[C@H]1C(=O)N[C@H](C(=O)N[C@@H](CC(N)=O)C(=O)N[C@H](C(=O)NCC(=O)N[C@@H](CO)C(=O)N[C@@H](CC(N)=O)C(=O)N[C@H](C(=O)N[C@@H](Cc1ccc(O)cc1)C(N)=O)[C@@H](C)O)C(C)C)[C@@H](C)O [des-^1Lys^18Arg^25,28,29Pro-h-Amylin] | 1.86 nM |  | compete with amylin | 0.021 nM | act as amylin agonists | negligible |
| CC[C@H](C)[C@H](NC(=O)[C@@H]1CCCN1C(=O)CNC(=O)[C@H](Cc1ccccc1)NC(=O)[C@H](CC(N)=O)NC(=O)[C@H](CC(N)=O)NC(=O)[C@H](CO)NC(=O)[C@H](CO)NC(=O)[C@H](CCCNC(=N)N)NC(=O)[C@@H](NC(=O)[C@H](CC(C)C)NC(=O)[C@H](Cc1ccccc1)NC(=O)[C@H](CC(N)=O)NC(=O)[C@H](C)NC(=O)[C@H](CC(C)C)NC(=O)[C@H](CCCNC(=N)N)NC(=O)[C@H](CCC(N)=O)NC(=O)[C@@H](NC(=O)[C@H](C)NC(=O)[C@@H]1CSSC[C@H](N)C(=O)N[C@@H](CC(N)=O)C(=O)N[C@@H]([C@@H](C)O)C(=O)N[C@@H](C)C(=O)N[C@@H]([C@@H](C)O)C(=O)N1)[C@@H](C)O)C(C)C)C(=O)N[C@@H](CC(C)C)C(=O)N1CCC[C@H]1C(=O)N[C@@H](CO)C(=O)N[C@H](C(=O)N[C@@H](CC(N)=O)C(=O)N[C@H](C(=O)NCC(=O)N[C@@H](CO)C(=O)N[C@@H](CC(N)=O)C(=O)N[C@H](C(=O)N[C@@H](Cc1ccc(O)cc1)C(N)=O)[C@@H](C)O)C(C)C)[C@@H](C)O [des-^1Lys^18Arg^25,28Pro-h-Amylin] | 3.77 nM |  | compete with amylin | 0.082 nM | act as amylin agonists | negligible |

The next lines start with results.

| EC50 [1] | solubility and stability characteristics when compared to human amylin [2] | compete with amylin in the receptor binding assay (amylin receptors) | IC50 (amylin receptors) | Structure (SMILES) | amylin agonist action in the soleus muscle assay [1] | antagonist activity as measured by the soleus muscle assay [1] |
| --- | --- | --- | --- | --- | --- | --- |
| 4.15 nM |  | compete with amylin | 0.014 nM | CC[C@H](C)[C@H](NC(=O)[C@@H]1CCCN1C(=O)CNC(=O)[C@H](Cc1ccccc1)NC(=O)[C@H](CC(N)=O)NC(=O)[C@H](CC(N)=O)NC(=O)[C@H](CO)NC(=O)[C@H](CO)NC(=O)[C@H](Cc1c[nH]cn1)NC(=O)[C@@H](NC(=O)[C@H](CC(C)C)NC(=O)[C@H](Cc1ccccc1)NC(=O)[C@H](CC(N)=O)NC(=O)[C@H](C)NC(=O)[C@H](CC(C)C)NC(=O)[C@H](CCCNC(=N)N)NC(=O)[C@H](CCC(N)=O)NC(=O)[C@@H](NC(=O)[C@H](C)NC(=O)[C@@H]1CSSC[C@H](N)C(=O)N[C@@H](CC(N)=O)C(=O)N[C@@H]([C@@H](C)O)C(=O)N[C@@H](C)C(=O)N[C@@H]([C@@H](C)O)C(=O)N1)[C@@H](C)O)C(C)C)C(=O)N[C@@H](CC(C)C)C(=O)N1CCC[C@H]1C(=O)N1CCC[C@H]1C(=O)N[C@H](C(=O)N[C@@H](CC(N)=O)C(=O)N[C@H](C(=O)NCC(=O)N[C@@H](CO)C(=O)N[C@@H](CC(N)=O)C(=O)N[C@H](C(=O)N[C@@H](Cc1ccc(O)cc1)C(N)=O)[C@@H](C)O)C(C)C)[C@@H](C)O [des-^1Lys^25,28,29Pro-h-Amylin] | act as amylin agonists | negligible |
| 7.7 nM |  |  | 0.085 nM | CC[C@H](C)[C@H](NC(=O)[C@@H]1CCCN1C(=O)CNC(=O)[C@H](Cc1ccccc1)NC(=O)[C@H](CC(N)=O)NC(=O)[C@H](CC(N)=O)NC(=O)[C@H](CO)NC(=O)[C@H](CO)NC(=O)[C@H](Cc1c[nH]cn1)NC(=O)[C@@H](NC(=O)[C@H](CC(C)C)NC(=O)[C@H](Cc1ccccc1)NC(=O)[C@H](CC(N)=O)NC(=O)[C@H](C)NC(=O)[C@H](CC(C)C)NC(=O)[C@H](CCCNC(=N)N)NC(=O)[C@H](CCC(N)=O)NC(=O)[C@@H](NC(=O)[C@H](C)NC(=O)[C@@H]1CSSC[C@H](N)C(=O)N[C@@H](CC(N)=O)C(=O)N[C@@H]([C@@H](C)O)C(=O)N[C@@H](C)C(=O)N[C@@H]([C@@H](C)O)C(=O)N1)[C@@H](C)O)C(C)C)C(=O)N[C@@H](CC(C)C)C(=O)N1CCC[C@H]1C(=O)N[C@@H](CO)C(=O)N[C@H](C(=O)N[C@@H](CC(N)=O)C(=O)N[C@H](C(=O)NCC(=O)N[C@@H](CO)C(=O)N[C@@H](CC(N)=O)C(=O)N[C@H](C(=O)N[C@@H](Cc1ccc(O)cc1)C(N)=O)[C@@H](C)O)C(C)C)[C@@H](C)O [des-^1Lys^25,28Pro-h-Amylin] |  |  |
